Test results taken from US9388419B2, “Methods for producing 3-hydroxypropionic acid and other products” (The Regents of the University of Colorado, a body corporate, priority 2009, dated 2016).

Experiments:
E. coli Mach1-T1 = test: Minimum inhibitory concentration (MIC) of 3-HP, microaerobic, 96 well-plate, MOPS minimal media; format: cell-based, Escherichia coli; conditions: Mach1-T1 with feedback resistant aroH mutant plasmid
Procedure: The minimum inhibitory concentration (MIC) using commercially obtained 3-HP (TCI America, Portland, Oreg. USA, see 3-HP preparation herein) was determined microaerobically in a 96 well-plate format. Overnight cultures of strains were grown in 5 ml LB (with antibiotic where appropriate). A 1 v/v % was used to inoculate a 15 ml conical tube filled to the top with MOPS minimal media and capped. After the cells reached mid exponential phase, the culture was diluted to an OD600 of 0.200. The cells were further diluted 1:20 and a 10 ul aliquot was used to inoculate each well (˜10^4 cells per well). The plate was arranged to measure the growth of variable strains or growth conditions in increasing 3-HP concentrations, 0-70 g/L, in 5 g/L increments, as well as either media supplemented with optimal supplement concentrations which were determined to be: 2.4 mM tyrosine (Sigma), 3.3 mM phenylalanine (Sigma), 1 mM tryptophan (Sigma), 0.2 mM p-hydroxybenzoic acid hydrazide (MP Biomedicals), 0.2 mM p-aminobenzoic acid (MP Biomedicals), 0.2 mM 2,3-dihydroxybenzoic acid (MP Biomedicals), 0.4 mM shikimic acid (Sigma), 2 mM pyridoxine hydrochloride (Sigma), 35 uM homoserine (Acros), 45 uM homocysteine thiolactone hydrochloride (MP Biomedicals), 0.5 mM oxobutanoate (Fluka), 5 mM threonine (Sigma). […]
The minimum inhibitory concentration (MIC) was determined microaerobically in a 96 well-plate format. […]

E. coli = format: cell-based, Escherichia coli; conditions: strain BW25113, M9 media with the named supplement(s), aerobic; MIC of 3-HP versus M9 control without supplement
Procedure: For MIC evaluations, the final results are expressed in chemical agent concentrations determined by analysis of the stock solution by HPLC (i.e., see Subsection Mb).
The minimum inhibitory concentration (MIC) was determined aerobically in a 96 well-plate format. […] Media supplements were added according to levels reported in the Supplements Table, where specified. Overnight cultures of strains were grown in triplicate in 5 mL LB (with antibiotic where appropriate). A 1% (v/v) inoculum was introduced into a 5 ml culture of M9 minimal media.

Row | SMILES | fold increase in MIC of 3-HP, cells comprising the aroH mutant vs control (E. coli Mach1-T1) | % Increase Over Control (E. coli)
1 | O=C(O)CCO [3-HP, 3-hydroxypropionic acid] | 1.4 times | 
2 | NCCCCCN [Cadaverine (C)] |  | 27%
3 | NCCCCN [Putrescine(C)] |  | 9%
4 | NCCCCNCCCN [Spermidine (C)] |  | 45%
